Tests used:
[1] = system: Ramos B cells; experiment: Early superoxide (O2-, ROS) response in Ramos B cells; assay type: cell-based; conditions: read-out: ROS EC50, Ramos cells; O2- response 1 h following incubation with drug
[2] = system: Jurkat T cells; experiment: Early superoxide (O2-, ROS) response in Jurkat T cells; assay type: cell-based
[3] = system: Ramos B cells; experiment: Cell death in Ramos B cells; assay type: cell-based; conditions: read-out: Cell death EC50, Ramos cells; cell death at 24 h
[4] = system: Jurkat T cells; experiment: Cell death in Jurkat T cells; assay type: cell-based
[5] = biological target: F1Fo-ATPase (OSCP subunit) (Bos taurus, UniProt P13621); experiment: ATP hydrolysis by SMPs reconstituted in the presence or absence of the OSCP
[6] = 75 μM PK11195, pre-incubation with MnTBAP
[7] = 75 μM PK11195, pre-incubation with Vitamin E

## CCC(C)N(C)C(=O)c1cc2ccccc2c(-c2ccccc2Cl)n1 (stereo not shown)
[1]
  EC50: 100 µM
[2]; [6]
  % ROS+: 39.7 ± 2.8%
[2]; [7]
  % ROS+: 33.9 ± 2.6%
[3]
  EC50: 90 µM
[4]; [6]
  % Cell death: 68.9 ± 1.0%
[4]; [7]
  % Cell death: 55.9 ± 0.5%
[5]
  Inhibition of F1Fo-ATPase activity in SMPs reconstituted with vs without the OSCP: more potent inhibitor of F1Fo-ATPase activity in the presence of the OSCP
